Earlier results on one compound are cited in patent US12128045B2, “Platinum-resistant cancer treatment” (BTG International Limited, priority 2017, dated 2024).

In the series the target is thymidylate synthase (TS). The note with it: read-out: Ki against isolated target thymidine synthase; cited from earlier work.

A word on the Ki: it is the equilibrium dissociation constant of an inhibitor or competing ligand from its target. As to `Nc1nc2[nH]cc(CCc3ccc(C(=O)N[C@@H](CCC(=O)O)C(=O)O)cc3)c2c(=O)[nH]1` [pemetrexed], the inhibition constant Ki was 1.4 nM.
